Compound activity as filed in PubChem.
Sampled rows, rich in hits. Any-hit rate of the full collection: about 2.2%.
ERp5 block: blocks human ERp5 reductase activity on insulin | Q15084 | ERp5 insulin aggregation, absorbance 650 nm, 90 min | inhibition, % at 9.99 µM | 350,000 tested, 0.05% active | AID 651711;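 active = mean replicate inhibition above about 25%, with every replicate also reaching it, limit read from the data, passing the limit was not always enough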
FGF22 binding: FGF22 (human) thermal shift binding. Q9HCT0. recombinant FGF22 thermal shift, SYPRO orange fluorescence; percent of sucrose octasulfate shift, DMSO zero. activity (Tm shift, normalised), % at 9.99 µM. 340,000 tested, 1.5% active;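 active = mean Tm shift, scaled 0 neutral to 100 positive control, at about 1.3% or above, every replicate too, limit read from the data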
UUG fidelity: yeast start codon fidelity modulation; activity score, % at 18.7 µM; actives 0.13% (n = 350,000); S. cerevisiae UUG-firefly luciferase reporter, luminescence/redox ratio; AID 602363;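 active means replicate mean at a twofold rise or more, about +100% in these data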;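 further: firefly luciferase made from a UUG start codon reports start codon fidelity; reporter light over untreated wells divided by growth signal over untreated wells; some hits fall short of that in this replicate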
PDI turbidity: inhibitors of human protein disulfide isomerase | P07237 | 350,000 tested, 0.052% active | PDI insulin aggregation turbidity, A650, 90 min | inhibition, % at 10 µM;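 active = mean inhibition across replicates of 30% or more, whatever share of single replicates reach that level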
S100A4 MyoIIA: S100A4-myosin IIA interaction inhibition; P26447; S100A4/TAMRA-MyoIIA peptide fluorescence polarization; inhibition, % at 10.7 µM; 360,000 tested, 0.14% active;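 active = mean inhibition of at least 70% across replicates, with every replicate also reaching that level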
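System – human S100A4 monomer protein, biochemical binding assay · Buffer or medium – Calcium-containing HEPES buffer, pH 7.2 · Timing – 5 min between mix addition and reading · Also added – TAMRA-labelled myosin IIA heavy-chain peptide probe, 5 nM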
SIRT5 inh: blocks human SIRT5 desuccinylation of peptide; Purified SirT5, succinyl-peptide AMC, trypsin-coupled fluorescence; inhibition, % at 15 µM; 330,000 tested, 1.1% active; in the data active = inhibition above about 15%
The depositor's hits bear a star; / = no result.

SMILES	ERp5 block	FGF22 binding	UUG fidelity	PDI turbidity	S100A4 MyoIIA	SIRT5 inh
O=C(CCN1CCCCC1)N[C@H]1CC[C@H](CCNS(=O)(=O)c2ccc(Cl)cc2)O[C@H]1CO	-1	1	9	/	2	-1
O=C(CCN1CCCCC1)N[C@H]1CC[C@@H](CCNS(=O)(=O)c2ccc(Cl)cc2)O[C@H]1CO	3	-1	11	/	82*	-2
O=C(N[C@H]1CC[C@H](CCNS(=O)(=O)c2ccc(Cl)cc2)O[C@H]1CO)c1cnccn1	2	0	-1	/	-12	32*
Cc1ccc(S(=O)(=O)NCC[C@@H]2CC[C@@H](NC(=O)CCN3CCCCC3)[C@H](CO)O2)cc1	0	0	1	/	2	10
Cn1cnc(S(=O)(=O)N[C@H]2CC[C@@H](CC(=O)Nc3ccccc3)O[C@@H]2CO)c1	1	0	-15	/	-8	34*
O=C(N[C@@H]1CC[C@H](CCNS(=O)(=O)c2ccc(Cl)cc2)O[C@H]1CO)c1cnccn1	2	0	5	/	3	-6
Cc1ccc(S(=O)(=O)NCC[C@@H]2CC[C@H](NC(=O)CCN3CCCCC3)[C@@H](CO)O2)cc1	2	0	1	/	8	17*
COc1cccc(C#Cc2ccc([C@H]3[C@@H](CO)N4C(=O)CN(C(C)=O)C[C@@H]34)cc2)c1	-2	/	/	/	3	0
COc1ccccc1CN1C[C@H](C)[C@H](OC)CN(C)C(=O)c2cc(NC(C)=O)ccc2OC[C@H]1C	-3	0	/	/	12	-3
Cc1ccc(-c2ccc3c(c2)O[C@@H](CN(C)S(C)(=O)=O)[C@@H](C)CN([C@H](C)CO)S3(=O)=O)cc1	2	0	-9	/	7	7
O=C(Cc1ccncc1)NCC[C@@H]1CC[C@H](NC(=O)C2CCCC2)[C@@H](CO)O1	-3	0	-3	/	9	5
O=C(CCN1CCCCC1)NCC[C@H]1CC[C@H](NC(=O)Cc2cccnc2)[C@H](CO)O1	0	0	107*	/	2	0
O=C(Cc1ccncc1)NCC[C@H]1CC[C@H](NC(=O)C2CCCC2)[C@H](CO)O1	-8	0	196*	/	-24	-3
O=C(C[C@@H]1CC[C@@H](NC(=O)Cc2cccnc2)[C@H](CO)O1)Nc1ccc(-c2ccccc2)cc1	-3	0	/	/	127*	7
CCCNC(=O)C[C@H]1CC[C@@H]2[C@H](COc3ccc(NC(=O)c4cc(F)cc(F)c4)cc3C(=O)N2C)O1	/	0	-13	/	/	/
C[C@H](CO)N1C[C@H](C)[C@@H](CN(C)Cc2ccc(C(F)(F)F)cc2)Oc2ccc(NS(=O)(=O)c3ccc(F)cc3)cc2CC1=O	-1	0	16	/	-1	35*
COc1ccc(S(=O)(=O)Nc2ccc3c(c2)CC(=O)N([C@@H](C)CO)C[C@@H](C)[C@@H](CN(C)Cc2ccc(C(F)(F)F)cc2)O3)cc1	-6	-1	2	/	4	5
C[C@H](CO)N1C[C@H](C)[C@H](CN(C)Cc2ccc(C(F)(F)F)cc2)Oc2ccc(NS(=O)(=O)c3ccc(F)cc3)cc2CC1=O	6	0	0	/	-17	12
COc1ccc(S(=O)(=O)Nc2ccc3c(c2)CC(=O)N([C@H](C)CO)C[C@@H](C)[C@@H](CN(C)Cc2ccc(C(F)(F)F)cc2)O3)cc1	8	0	6	/	-2	22*
COc1ccc(CN(C)C[C@H]2Oc3ccc(NS(=O)(=O)c4ccc(OC)cc4)cc3CC(=O)N([C@H](C)CO)C[C@H]2C)cc1	1	0	-27	/	-15	1
COc1ccc(S(=O)(=O)Nc2ccc3c(c2)CC(=O)N([C@@H](C)CO)C[C@@H](C)[C@H](CN(C)Cc2ccc(C(F)(F)F)cc2)O3)cc1	-2	-1	4	/	-20	24*
COc1ccc(S(=O)(=O)Nc2ccc3c(c2)CC(=O)N([C@H](C)CO)C[C@H](C)[C@@H](CN(C)Cc2ccc(C(F)(F)F)cc2)O3)cc1	12	-1	16	/	4	26*
C[C@@H]1CCCCO[C@@H](CN(C)S(=O)(=O)c2cccs2)[C@@H](C)CN([C@@H](C)CO)C(=O)c2cc(NC(=O)NC3CCCCC3)ccc2O1	/	0	-1	/	/	/
CNC[C@H]1Oc2ccc(N(C)C)cc2CC(=O)N([C@@H](C)CO)C[C@H]1C	5	0	1	/	-13	3
CCCN1[C@@H]2c3ccc(-c4ccc(F)cc4)c(=O)n3C[C@H]1[C@H](CO)[C@H]2C(=O)NCC	2	/	/	/	-6	0

5 compounds picked at random from those above, as already listed:
SMILES	ERp5 block	FGF22 binding	UUG fidelity	PDI turbidity	S100A4 MyoIIA	SIRT5 inh
Cc1ccc(S(=O)(=O)NCC[C@@H]2CC[C@@H](NC(=O)CCN3CCCCC3)[C@H](CO)O2)cc1	0	0	1	/	2	10
C[C@@H]1CCCCO[C@@H](CN(C)S(=O)(=O)c2cccs2)[C@@H](C)CN([C@@H](C)CO)C(=O)c2cc(NC(=O)NC3CCCCC3)ccc2O1	/	0	-1	/	/	/
O=C(CCN1CCCCC1)N[C@H]1CC[C@@H](CCNS(=O)(=O)c2ccc(Cl)cc2)O[C@H]1CO	3	-1	11	/	82*	-2
COc1ccc(S(=O)(=O)Nc2ccc3c(c2)CC(=O)N([C@@H](C)CO)C[C@@H](C)[C@@H](CN(C)Cc2ccc(C(F)(F)F)cc2)O3)cc1	-6	-1	2	/	4	5
O=C(Cc1ccncc1)NCC[C@@H]1CC[C@H](NC(=O)C2CCCC2)[C@@H](CO)O1	-3	0	-3	/	9	5

(further entries)
SMILES	ERp5 block	FGF22 binding	UUG fidelity	PDI turbidity	S100A4 MyoIIA	SIRT5 inh
C/C=C/c1ccc([C@H]2[C@@H](CO)N3C(=O)CN(Cc4ccc(C)cc4)C[C@H]23)cc1	-2	/	/	/	7	5
CN(C)CC#Cc1ccc([C@@H]2[C@@H](CO)N3CCCCN(C(=O)C4CCCC4)C[C@@H]23)cc1	0	0	17	/	4	2
COc1ccc(S(=O)(=O)Nc2ccc3c(c2)CC(=O)N([C@H](C)CO)C[C@@H](C)[C@H](CN(C)Cc2ccc(C(F)(F)F)cc2)O3)cc1	9	-1	5	/	4	15
COc1ccc(S(=O)(=O)Nc2ccc3c(c2)CC(=O)N([C@@H](C)CO)C[C@H](C)[C@H](CN(C)Cc2ccc(C(F)(F)F)cc2)O3)cc1	-8	-1	14	/	2	22*
CC(=O)N1[C@@H]2c3ccc(C4=CCCC4)c(=O)n3C[C@H]1[C@H](CO)[C@H]2C(=O)NC1CCCC1	1	/	/	/	-13	-16
CN(C)S(=O)(=O)c1cccc(NC(=O)COC(=O)/C=C/c2ccc(Br)o2)c1	-7	0	-21	-5	20	-1
Cc1ccc(NC(=O)COC(=O)/C=C/c2ccc(Br)o2)cc1S(=O)(=O)N(C)C	-7	43*	/	-2	-3	-4
Cc1ccc(NC(=O)c2ccc(Br)o2)cc1S(=O)(=O)N(C)C	5	43*	/	3	-1	0
CCC(=O)N(C)C[C@H]1Oc2ncc(-c3ccc(C)cc3)cc2C(=O)N([C@H](C)CO)C[C@@H]1C	-7	0	4	/	-10	4
CC(NS(=O)(=O)c1ccc2[nH]c(=O)c(=O)[nH]c2c1)C(=O)O (stereo unspecified)	2	0	-23	8	-1	25*
Cc1cc(C)nc(N/N=C/C2=C(N3CCOCC3)C(=C\c3ccc(Cl)cc3)/CC2)n1	/	/	/	-1	/	/
O=C(O)c1ccc(N/N=C/C2=C(N3CCOCC3)C(=C\c3ccccc3)/CC2)cc1	1	0	-21	-9	-14	19*
CCOC(=O)C1CCN(S(=O)(=O)c2ccc(C(C)(C)C)cc2)CC1	-7	43*	/	1	-2	10
CCOC(=O)C1CCN(S(=O)(=O)c2ccc(CC)cc2)CC1	/	/	/	-3	/	/
